The record followed here is ChEMBL document CHEMBL3616463, “Differential influence of 7 cations on 16 non-competitive NMDA receptor blockers” (Bioorg Med Chem Lett, 2015).

In the assay the target is Glutamate NMDA receptor. Type of assay: cell membranes, Rattus norvegicus, Wistar, Brain, Membrane.

Structures are written as SMILES.

As for `CC12CC3CC(C)(C1)CC(N)(C3)C2` [MEMANTINE], the IC50 was found to be 1090 nM.
